Source: patent US20190352297A1, “SELECTIVE AURORA A KINASE INHIBITORS” (UNIVERSITAT BERN, priority 2017, published 2019)

How the values were obtained:
[1] = target: T1, Aurora A bound to TPX2 (Homo sapiens, UniProt O14965); assay: Aurora A kinase activity and inhibition in the presence of TPX2; format: biochemical; conditions: TPX2 binding
T1 construct: human Aurora A kinase domain (residues 122-403 in the pET24-d vector); His-tag (cleaved yes); made in house; host or cells: E. coli
T1 sequence (O14965 122-403): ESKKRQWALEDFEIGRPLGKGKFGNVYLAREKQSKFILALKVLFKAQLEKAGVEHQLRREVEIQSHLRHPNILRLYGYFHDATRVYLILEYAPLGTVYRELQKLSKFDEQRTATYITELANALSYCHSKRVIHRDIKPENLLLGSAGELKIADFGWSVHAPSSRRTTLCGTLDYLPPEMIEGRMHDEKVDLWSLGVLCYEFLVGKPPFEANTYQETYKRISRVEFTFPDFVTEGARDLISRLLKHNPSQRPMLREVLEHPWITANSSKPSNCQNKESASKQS
Method: Aurora A and AuroraB kinases were assayed using the homogeneous time-resolved fluorescence (HTRF) KinEASE STK2 kit from Cisbio (France). […] For both enzymes, the reactions were run for 30 min at room temperature and stopped by the addition of 10 μL of detection buffer containing EDTA, antiphospho-Ser/Thr antibody labelled with europium cryptate, and XL-665 conjugated streptavidin (62.5 nM final concentration). After incubation at room temperature for one hour, fluorescence was measured at 620 nm (europium cryptate) and 665 nm (XL-665) after excitation at 317 nm (lag time 60 μs, integration time 500 μs) using a Tecan Infinite M1000 PRO microplate reader (Greiner 384-well plates, white, non-binding, small volume). The ratio of fluorescence (665 nm/620 nm) was calculated for each well and the results were expressed as follows: specific signal=ratio (sample)−ratio (negative control), where ratio=665 nm/620 nm×10^4. Compounds were measured in threefold serial dilutions at 10 different concentrations, covering the concentration range from no to full inhibition. Each concentration was measured in duplicates, and two independent determinations were made for each IC50 value. IC50 curves were generated using a four-parameter logistic model (XLfit from IDBS).

[2] = target: T2, Aurora A / TPX2 (1-43) (Homo sapiens, UniProt O14965); assay: Microscale thermophoresis, Aurora A binding to labeled TPX2 1-43; conditions: no inhibitor
T2 construct: human Aurora A kinase domain (residues 122-403 in the pET24-d vector); His-tag (cleaved yes); made in house; host or cells: E. coli BL21 (DE3) Rosetta (Aurora A); E. coli Bl21 (DE3) (TPX2)
T2 sequence (O14965 122-403): T1 sequence (O14965 122-403)
Method: The clone of human TPX2 N-terminal domain (residues 1-43), preceded by GST and a TEV cleavage site, was a generous gift from the Conti laboratory (MPI, Martinsried). The protein was expressed in E. coli Bl21 (DE3) cells using 0.1 mM IPTG at 20° C. for 12 hours. Cells were broken and the soluble fraction was isolated as explained above. TPX2 was purified using a GSTrap (GE Healthcare) equilibrated in 50 mM Tris, 150 mM NaCl, pH=7.5. GST-TPX2 was eluted using final buffer plus 10 mM reduced glutathione. The GST-tag was cleaved with TEV protease at 4° C. overnight. TPX2 (1-43) was isolated in a final step of size exclusion chromatography using a HiLoad 16/60 Superdex™ 75 column (GE Healthcare) equilibrated in final buffer. Protein concentration was determined by UV absorbance. TPX2 was flash frozen in liquid nitrogen and stored at −18° C.
TPX2 was labelled using the Monolith NT.115 protein labelling kit RED (NanoTemper Technologies). […] Thermophoresis was measured at room temperature with 5 s/30 s/5 s laser off/on/off times. […] Data of three independent measurements were analyzed (NT.Analysis software, version 1.5.41, NanoTemper Technologies) using the thermophoresis signal after 10 sec. Points measured above 4.7 μM Aurora A were rejected.

increase in the activity of Aurora A [1]: 3 fold
Kd [2]: 795 ± 129 nM
Substance: TPX2^1-43: human TPX2 N-terminal domain (residues 1-43), microtubule-associated activator protein of Aurora A
